Measured values reported in the NIST ThermoML archive (doi:10.1021/je100897y).
Values joined by “and” are separate entries in the source; they are usually repeats but may differ in a detail not shown here. Identical values can stand only once. ± gives the expanded uncertainty stated by the source.

Legend:
[1] = 298.15 K; 101.33 kPa; Liquid
[2] = excess molar enthalpy (molar enthalpy of mixing); xn = mol fraction of the nth substance listed; conditions: 298.15 K, 101 kPa, Liquid, Flow calorimetry

Compound: CCCCOCCCC [dibutyl ether]
- mass density [1]: 763.806 ± 0.33 kg/m3

Compound: CCCCOCCCC [dibutyl ether] + C1CCOC1
- excess molar enthalpy ([2]; x1 = 0.05): 0.0188 ± 0.000478 kcal/mol
- excess molar enthalpy ([2]; x1 = 0.0998): 0.0343 ± 0.000598 kcal/mol
- excess molar enthalpy ([2]; x1 = 0.1502): 0.0474 ± 0.000741 kcal/mol
- excess molar enthalpy ([2]; x1 = 0.2): 0.0582 ± 0.000837 kcal/mol
- excess molar enthalpy ([2]; x1 = 0.25): 0.0666 ± 0.000932 kcal/mol
- excess molar enthalpy ([2]; x1 = 0.3): 0.0731 ± 0.001 kcal/mol
- excess molar enthalpy ([2]; x1 = 0.3499): 0.0777 ± 0.00105 kcal/mol
- excess molar enthalpy ([2]; x1 = 0.4): 0.0805 ± 0.0011 kcal/mol
- excess molar enthalpy ([2]; x1 = 0.4502): 0.0816 ± 0.0011 kcal/mol
- excess molar enthalpy ([2]; x1 = 0.4998): 0.081 kcal/mol and 0.0811 kcal/mol
- excess molar enthalpy ([2]; x1 = 0.5498): 0.0793 ± 0.00108 kcal/mol
- excess molar enthalpy ([2]; x1 = 0.6002): 0.0761 ± 0.00105 kcal/mol
- excess molar enthalpy ([2]; x1 = 0.6499): 0.0712 ± 0.00098 kcal/mol
- excess molar enthalpy ([2]; x1 = 0.7): 0.0652 ± 0.000908 kcal/mol
- excess molar enthalpy ([2]; x1 = 0.7501): 0.0575 ± 0.000837 kcal/mol
- excess molar enthalpy ([2]; x1 = 0.8): 0.0488 ± 0.000741 kcal/mol
- excess molar enthalpy ([2]; x1 = 0.85): 0.0388 ± 0.000621 kcal/mol
- excess molar enthalpy ([2]; x1 = 0.9): 0.0268 ± 0.000502 kcal/mol
- excess molar enthalpy ([2]; x1 = 0.95): 0.0142 ± 0.000382 kcal/mol
